Test results reported in US8614223B2, “Pyrimidine hydroxy amide compounds as protein deacetylase inhibitors and methods of use thereof” (Acetylon Pharmaceuticals, Inc., priority 2010, dated 2013).

The chains behind the UniProt entries cited, without tags or fusion partners. Where a name states a change or a piece, a line headed by the entry shows the natural chain unless it says otherwise.
UniProt Q13547, whole entry: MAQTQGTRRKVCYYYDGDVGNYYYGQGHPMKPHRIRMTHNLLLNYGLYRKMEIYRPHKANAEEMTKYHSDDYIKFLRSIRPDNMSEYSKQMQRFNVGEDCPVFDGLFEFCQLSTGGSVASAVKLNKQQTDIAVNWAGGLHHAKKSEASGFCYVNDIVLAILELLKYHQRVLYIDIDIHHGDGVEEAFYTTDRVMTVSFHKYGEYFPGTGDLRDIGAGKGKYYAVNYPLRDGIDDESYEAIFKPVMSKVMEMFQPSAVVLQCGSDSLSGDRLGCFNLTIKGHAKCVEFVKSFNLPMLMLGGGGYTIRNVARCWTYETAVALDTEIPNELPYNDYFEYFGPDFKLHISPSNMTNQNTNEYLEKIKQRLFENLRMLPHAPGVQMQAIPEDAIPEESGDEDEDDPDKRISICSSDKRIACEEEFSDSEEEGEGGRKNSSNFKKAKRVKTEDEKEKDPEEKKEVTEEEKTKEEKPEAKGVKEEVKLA
UniProt Q92769, whole entry: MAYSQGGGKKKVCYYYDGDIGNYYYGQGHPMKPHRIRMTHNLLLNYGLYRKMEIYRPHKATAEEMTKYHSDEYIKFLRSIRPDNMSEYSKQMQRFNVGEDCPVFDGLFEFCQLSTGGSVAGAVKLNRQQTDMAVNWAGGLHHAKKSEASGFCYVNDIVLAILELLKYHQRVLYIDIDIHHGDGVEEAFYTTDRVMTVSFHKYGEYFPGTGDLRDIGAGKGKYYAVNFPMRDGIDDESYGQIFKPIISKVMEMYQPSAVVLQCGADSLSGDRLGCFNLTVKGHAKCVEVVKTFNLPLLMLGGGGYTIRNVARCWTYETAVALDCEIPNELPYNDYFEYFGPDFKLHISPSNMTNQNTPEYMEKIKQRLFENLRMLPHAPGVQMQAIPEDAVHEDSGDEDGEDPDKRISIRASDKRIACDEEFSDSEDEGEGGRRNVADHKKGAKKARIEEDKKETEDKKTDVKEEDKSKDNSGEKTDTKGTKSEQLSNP
UniProt O15379: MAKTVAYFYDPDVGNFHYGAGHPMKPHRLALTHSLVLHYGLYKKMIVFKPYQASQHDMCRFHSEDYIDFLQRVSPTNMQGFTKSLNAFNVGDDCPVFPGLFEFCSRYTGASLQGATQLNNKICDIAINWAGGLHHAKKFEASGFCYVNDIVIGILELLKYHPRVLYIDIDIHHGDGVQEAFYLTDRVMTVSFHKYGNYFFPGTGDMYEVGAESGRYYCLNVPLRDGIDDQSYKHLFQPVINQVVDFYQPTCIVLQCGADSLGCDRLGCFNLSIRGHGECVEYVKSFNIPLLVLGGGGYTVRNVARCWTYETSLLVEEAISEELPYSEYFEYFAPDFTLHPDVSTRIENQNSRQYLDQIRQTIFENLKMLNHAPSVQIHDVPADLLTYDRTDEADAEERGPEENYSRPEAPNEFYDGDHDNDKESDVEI

Assays:
HDAC1 = HDAC1 (Homo sapiens (Human), UniProt Q13547); test: HDAC enzyme assay, HDAC1; conditions: ratio HDAC1/HDAC6
HDAC2 = HDAC2 (Homo sapiens (Human), UniProt Q92769); test: HDAC enzyme assay, HDAC2; conditions: for HDAC2 fold over HDAC6 IC50 (selectivity for HDAC6): ratio HDAC2/HDAC6
HDAC3 = HDAC3 (Homo sapiens (Human), UniProt O15379); test: HDAC enzyme assay, HDAC3; conditions: ratio HDAC3/HDAC6

HDAC1 fold over HDAC6 IC50 (selectivity for HDAC6) (HDAC1)	HDAC2 fold over HDAC6 IC50 (selectivity for HDAC6) (HDAC2)	HDAC3 fold over HDAC6 IC50 (selectivity for HDAC6) (HDAC3)	SMILES	IC50 (HDAC2; read-out: HDAC2 IC50) [nM]
(53.1x)	(50x)	(60.4x)	O=C(NO)c1cnc(Nc2ccc(Cl)c(Cl)c2)nc1 [Compound 2]	–
(39.9x)	(64.8x)	(115.2x)	O=C(NO)c1cnc(NC2(c3cccs3)CC2)nc1 [Compound 98]	–
–	–	–	O=C(NO)c1cnc(NC2(c3cccc(Cl)c3)CC2)nc1 [Compound 94]	32
